## Measured logP (octanol/water) values of organic chemicals

logP is the log10 of the octanol-water partition coefficient; higher is more lipophilic.
Cells with "–" have no entry in this list.
The databases behind each value are named after "via".

log Kow,structure (SMILES),name,via
-2.35,CCOC(=O)C1=CCC[N+](C)(C)C1.[I-],–,OCHEM
0.26,OCCOc1cccc(OCCO)c1,"2,2'-[Benzene-1,3-diylbis(oxy)]diethanol",eChemPortal
0.96,COC(=O)c1ccc(C(F)(F)F)nc1S(=O)(=O)[N-]C(=O)Nc1nc(OC)cc(OC)n1.[Na+],Flupyrsulfuron-methyl sodium,OCHEM
1.92,O=C(CO)c1ccccc1,"Ethanone, 2-hydroxy-1-phenyl-",OCHEM
-1.5,Nc1ccc(/N=N/c2ccc(/N=N/c3c(S(=O)(=O)[O-])cc4cc(S(=O)(=O)[O-])c(/N=N/c5ccc(/N=N/c6ccc(N)cc6N)cc5)c(O)c4c3N)cc2)c(N)c1.[Na+].[Na+],"C.I. Direct Black 19, disodium salt",eChemPortal
-3.39,F[B-](F)(F)F.F[B-](F)(F)F.F[N+]12CC[N+](CCl)(CC1)CC2,–,eChemPortal
3.85,ClC1=C[C@@H](Cl)[C@@H](Cl)[C@H](Cl)[C@H]1Cl (relative stereo),–,OCHEM
0.9,CC(O)CO.O=C(O)c1ccc2c(c1)C(=O)OC2=O,–,eChemPortal
0.64,CCCCNCCO,"Ethanol, 2-(butylamino)-",eChemPortal
3.1,CCN(CC)CCNC(=O)C1C(C)=NC(/C=C2\C(=O)Nc3ccc(F)cc32)=C1C (stereo partly drawn),Sunitinib,PubChem
1.28,N#[N+]c1ccc(Nc2ccccc2)cc1.O=S(=O)([O-])O,"Benzenediazonium, 4-(phenylamino)-, sulfate (1:1)",eChemPortal
-0.609,Cc1ccc(N(C)/N=C/C2=[N+](C)c3ccccc3C2(C)C)cc1.[Cl-],–,eChemPortal
2,COc1ccccc1N1CCN(CCNC(=O)c2cccs2)CC1,–,OCHEM
3.57,Oc1ccc(N=Nc2ccccc2)cc1,4-Hydroxyazobenzene,OCHEM
1.3,CC1(C)S[C@@H]2[C@H](N3C(=O)[C@@H](c4ccccc4)NC3(C)C)C(=O)N2[C@H]1C(=O)O,Hetacillin,"OCHEM, PubChem"
6.11,CCCCCCCOC(=O)CCCCCCC,Heptyl octanoate,OCHEM
2.97,O=C(Nc1ccc(Cl)cc1)c1cc2ccccc2cc1O,"2-Naphthalenecarboxamide, N-(4-chlorophenyl)-3-hydroxy-",eChemPortal
0.985,Oc1cccc(O)c1O,Pyrogallol,OCHEM
-2.28,CC(=O)N(CCO)c1c(I)c(C(=O)N(C)CC(O)CO)c(I)c(C(=O)N(C)CC(O)CO)c1I (stereo not given),–,OCHEM
-2.1,CC(=O)Nc1cc(Nc2nc(F)nc(F)c2Cl)ccc1/N=N/c1ccc2cc(S(=O)(=O)[O-])cc(S(=O)(=O)[O-])c2c1.[Na+].[Na+],–,eChemPortal
-3.63,C=CC(=O)OCCCS(=O)(=O)[O-].[K+],Potassium 3-sulfopropyl acrylate,eChemPortal
1.5,COc1cccc([C@H](C)N)c1,1-(3-Methoxyphenyl)ethan-1-amine,eChemPortal
2,NCCCCCCN.O=C(O)c1ccc(C(=O)O)cc1,Hexamethylene diamine terephthalate,eChemPortal
-2.78,O=S(=O)([O-])CCC[n+]1ccccc1,3-(Pyridinium-1-yl)propane-1-sulfonate,eChemPortal
-3.05,Nc1cc(S(=O)(=O)[O-])c(O)c2c1C(=O)c1c(O)c(S(=O)(=O)[O-])cc(N)c1C2=O.[Na+].[Na+],C.I. Acid Blue 45,eChemPortal
1.48,CCOC(C)(C)C,Ethyl t-butyl ether,"PubChem, eChemPortal"
1.6,COc1ccccc1N1CCN(CCNC(=O)c2ccco2)CC1,–,OCHEM
4.5,CC(C)n1c(/C=C/[C@@H](O)C[C@@H](O)CC(=O)O)c(-c2ccc(F)cc2)c2ccccc21,Fluvastatin,PubChem
1.01,O=C(O)C1CCCCC1C(=O)O (stereo not given),"1,2-Cyclohexanedicarboxylic acid",OCHEM
3.53,O=C1C(=C2Sc3ccccc3C2=O)Sc2ccccc21,–,eChemPortal
-0.3,Nc1c[n+]([O-])c2ccccc2[n+]1[O-],Tirapazamine,OCHEM
-2.1,CC(=O)N[C@@H](C=O)[C@@H](O)[C@H](O)[C@H](O)CO,N-Acetylglucosamine,PubChem
-2.4,CCN(CC)c1ccc(/C=C/C2=[N+](C)c3ccccc3C2(C)C)cc1.O=P([O-])(O)O,–,eChemPortal
-2.88,CCN(CC)CCCNC(=O)c1ccc(N)cc1.Cl,4-Amino-N-[3-(diethylamino)propyl]benzamide hydrochloride,eChemPortal
-1.95,CC(=O)[C-](/N=N/c1cc([N+](=O)[O-])cc(S(=O)(=O)[O-])c1[O-])C(=O)Nc1ccccc1.CC(=O)[C-](/N=N/c1cc([N+](=O)[O-])cc(S(=O)(=O)[O-])c1[O-])C(=O)Nc1ccccc1.[Co+3].[Na+].[Na+].[Na+],–,eChemPortal
-2.84,N[C@@H](CCCCNC=O)C(=O)O,–,OCHEM
3.05,CC(=O)[O-].Cn1cnn(C)/c1=N/N=C1C=CC(=[N+](C)Cc2ccccc2)C=C1,–,eChemPortal
1.91,CCC[C@@H]1C[C@@H](C(=O)N[C@@H]([C@H]2O[C@H](SCC)[C@H](O)[C@@H](O)[C@H]2O)[C@@H](C)O)N(CC)C1,Lincomycin S,OCHEM

The 2 highest values of log Kow among the entries above:

| structure (SMILES) | name | log Kow | via |
|---|---|---|---|
| CCCCCCCOC(=O)CCCCCCC | Heptyl octanoate | 6.11 | OCHEM |
| CC(C)n1c(/C=C/[C@@H](O)C[C@@H](O)CC(=O)O)c(-c2ccc(F)cc2)c2ccccc21 | Fluvastatin | 4.5 | PubChem |

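These are experimental values that the OPERA curators gathered from public databases to train and test their QSAR models. One number stands for a compound and property, with no spread given. How each value was measured is not recorded, so precision varies. Where a salt, mixture or single isomer is drawn, the source does not say that exactly this form was tested. Some entries may be limits or estimates that an upstream database listed as plain numbers.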

Data: OPERA 2.9 data sets, kmansouri/OPERA on GitHub.